ChEMBL document CHEMBL1135338, “Protease inhibitors: synthesis of matrix metalloproteinase and bacterial collagenase inhibitors incorporating 5-amino-2-mercapto-1,3,4-thiadiazole zinc binding functions” (Bioorg Med Chem Lett, 2002)

Amino acid sequences for entries named in this document (tags omitted). A change or cut given only in a name is not applied to a line headed by its entry.
UniProt P08253: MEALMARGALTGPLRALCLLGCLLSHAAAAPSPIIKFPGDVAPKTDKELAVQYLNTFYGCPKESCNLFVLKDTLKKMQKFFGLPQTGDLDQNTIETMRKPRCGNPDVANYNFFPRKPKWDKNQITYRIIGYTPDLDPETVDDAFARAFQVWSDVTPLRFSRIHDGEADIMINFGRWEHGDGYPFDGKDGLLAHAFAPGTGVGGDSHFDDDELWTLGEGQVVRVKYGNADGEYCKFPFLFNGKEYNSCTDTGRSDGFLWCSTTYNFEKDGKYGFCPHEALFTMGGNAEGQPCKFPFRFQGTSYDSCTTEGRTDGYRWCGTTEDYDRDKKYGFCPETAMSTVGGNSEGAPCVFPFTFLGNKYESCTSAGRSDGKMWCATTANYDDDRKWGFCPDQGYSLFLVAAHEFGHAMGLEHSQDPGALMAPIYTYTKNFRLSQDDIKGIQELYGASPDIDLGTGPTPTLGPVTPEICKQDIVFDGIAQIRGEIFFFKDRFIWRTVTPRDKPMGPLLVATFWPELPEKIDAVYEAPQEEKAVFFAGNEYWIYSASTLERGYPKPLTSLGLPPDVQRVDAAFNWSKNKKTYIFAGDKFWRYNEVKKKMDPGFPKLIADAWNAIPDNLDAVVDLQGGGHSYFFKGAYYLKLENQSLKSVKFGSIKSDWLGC

Target: 72 kDa type IV collagenase (Homo sapiens, UniProt P08253)
Experiment: Inhibition of human Matrix metalloprotease-2

Ki: 2000 nM
Compound: CC(C)C(NS(=O)(=O)c1ccc(-c2ccc(Br)cc2)cc1)C(=O)O (stereo unspecified)
